{
  "source": "patent US9662059B2",
  "about": "“Imaging agents for monitoring changes of dopamine receptors and methods of using thereof” (The Regents of the University of California, priority 2007, dated 2017)",
  "origin": "cited, not measured here",
  "test_system": "D2R",
  "conditions": "Rubi et al., J Biol Chem 2005; cited from earlier work",
  "data": [
    {"smiles": "CCCN1CCC[C@@H]2Cc3n[nH]cc3C[C@H]21", "note": "[Quinpirole]", "values": [
      {"measurement": "effect on glucose-dependent insulin secretion", "result": "inhibited glucose-dependent insulin secretion"}
    ]}
  ]
}
